## Properties, as collected for the OPERA models

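These are experimental values that the OPERA curators gathered from public databases to train and test their QSAR models. A listed value is a point estimate from one report or more. Method and conditions are not stated for these values. Where a salt, mixture or single isomer is drawn, the source does not say that exactly this form was tested. Some entries may be limits or estimates that an upstream database listed as plain numbers.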

The melting point is given in degrees Celsius.
Boiling points are in °C, nominally at 760 mmHg.
logP is the log10 of the octanol-water partition coefficient; higher is more lipophilic.
Solubility in water is on a log10 molar scale (set defined at 25 °C).
Vapor pressure is log10 of mmHg; the set covers 15 to 30 °C, mostly 20 to 25 °C.
Henry's law constant (air-water partitioning) is log10 of atm·m3/mol, nominally at 25 °C.
The unbound fraction in human plasma runs from 0 (all bound) to 1 (all free).
Intrinsic clearance (human, µL/min per 10^6 hepatocytes): higher is faster turnover, and 0 stands for none detected.

For CC(CC(=O)O)CC(C)(C)C (stereo not given) the data give logP 3.2 and log solubility -2.354 (log10 mol/L) and vapor pressure -2.412 (log10 mmHg). For C=C(C)C(=O)NCCCN(C)C the data give logP 0.5 and vapor pressure -2.523 (log10 mmHg). The entry for CC(C)(C)c1cc2c(c(C(C)(C)C)c1)OP(=O)(O)Oc1c(cc(C(C)(C)C)cc1C(C)(C)C)C2 lists melting point 326.5 °C and BP 340 °C and logP 2.97 and log solubility -4.582 (log10 mol/L). CC(CCO)CC(C)(C)C (stereo not given) has logP 3.56 and log solubility -2.557 (log10 mol/L). CN[C@@H]1CCc2[nH]c3ccc(C(N)=O)cc3c2C1 is reported with logP 0.9 and log solubility -3.296 (log10 mol/L). O=C1CCc2ccccc2O1 is reported with logP 1.82 and log solubility -1.932 (log10 mol/L).

COc1cc(/N=N/c2cc(S(=O)(=O)[O-])c3cccc(S(=O)(=O)[O-])c3c2)c(C)cc1/N=N/c1c(S(=O)(=O)[O-])cc2cc(Nc3ccccc3)ccc2c1O.[Na+].[Na+].[Na+] has logP -5 and vapor pressure -13.67 (log10 mmHg). For CCC(C)NC(N)=O (stereo not given) the data give melting point 171 °C and log solubility -0.463 (log10 mol/L) and vapor pressure -4.979 (log10 mmHg). The entry for C=C1[C@H]2CC[C@@H]3[C@H]2C(C)(C)CCC[C@]13C lists logP 5 and log solubility -4.413 (log10 mol/L) and vapor pressure -1.401 (log10 mmHg). Listed for CC(=O)c1ccc2cc(O)c(O)cc2c1: melting point 170 °C and logP 2.32. The entry for CCCCC(CC)C(=O)OCCOCCOCCOCCOC(=O)C(CC)CCCC (stereo not given) lists logP 6.1 and log solubility -5.483 (log10 mol/L). For Cl.Cl.Nc1ccc(OCCO)c(N)c1 the data give logP 0.104 and vapor pressure -8.539 (log10 mmHg).

CC(C)(C)c1cc(CCC(=O)OCCNC(=O)C(=O)NCCOC(=O)CCc2cc(C(C)(C)C)c(O)c(C(C)(C)C)c2)cc(C(C)(C)C)c1O has melting point 178 °C and log solubility -8.667 (log10 mol/L) and vapor pressure -9.837 (log10 mmHg). The entry for COc1ccc(C(=O)c2ccccc2)c(O)c1 lists fu 0.00952 and Clint 15.7 µL/min/10^6 cells. C=CC(=O)OCCOC(=O)Nc1cccc(SC)c1 is reported with melting point 53.2 °C and log solubility -3.893 (log10 mol/L) and vapor pressure -4.148 (log10 mmHg). CCN(CC)c1ccc2nc3ccc(=[N+](CC)CC)cc-3oc2c1.O=C[O-] is reported with melting point 163 °C and logP 2.8 and log solubility -2.431 (log10 mol/L). For CCCCNC(=S)N(CCCC)CCCC the data give logP 4 and log solubility -4.184 (log10 mol/L) and vapor pressure -4.786 (log10 mmHg). For CC(O)CN(C)CC(C)O (stereo not given) the data give melting point -32 °C and logP -0.03 and vapor pressure -1.847 (log10 mmHg) and Henry's law constant -8.458 (log10 atm·m3/mol).

CCCCCCCCCCCCCCCCCCO[Si](C)(C)OCCCCCCCCCCCCCCCCCC is reported with melting point 32 °C and vapor pressure -5.523 (log10 mmHg). Listed for O=C(O)[C@@H]1C2CCC(CC2)[C@H]1Nc1nc(Cl)ncc1F: melting point 217 °C and log solubility -3.572 (log10 mol/L) and vapor pressure -9.636 (log10 mmHg). Listed for C=C1CCC=C(C)CC[C@@H]2[C@@H]1CC2(C)C: logP 6.23 and vapor pressure -1.259 (log10 mmHg). CNC=O has logP -0.97 and vapor pressure -0.597 (log10 mmHg). For Cc1ccc(C(C)NC(=O)[C@@H](NC(=O)OC(C)C)C(C)C)cc1 (some centres undefined) the data give vapor pressure -9.227 (log10 mmHg) and Henry's law constant -10.86 (log10 atm·m3/mol). CCO[Si](CCCC1CC(=O)OC1=O)(OCC)OCC (stereo not given) is reported with BP 359.5 °C and vapor pressure -3.011 (log10 mmHg).

CC(C)(C)C(=O)CCc1ccc(Cl)cc1 is reported with log solubility -4.036 (log10 mol/L) and vapor pressure -3.305 (log10 mmHg). CC(C)(C)OC(=O)N1CC[C@@H](N2CC/C(=C\C3=C(C(=O)OC(c4ccccc4)c4ccccc4)N4C(=O)[C@@H](NC(=O)/C(=N\OC(c5ccccc5)(c5ccccc5)c5ccccc5)c5nsc(N)n5)[C@H]4SC3)C2=O)C1 has logP 5.66 and log solubility -7.717 (log10 mol/L). For Cc1ccc2[nH]c3cc4c(=O)c5cc(C)ccc5[nH]c4cc3c(=O)c2c1 the data give logP 2.2 and log solubility -7.784 (log10 mol/L). For Cc1ccc2c(=O)[nH]c(=O)oc2c1 the data give melting point 238 °C and BP 357.5 °C and logP 1.3 and log solubility -3.176 (log10 mol/L) and vapor pressure -6.979 (log10 mmHg). For Cc1ccc2c(=O)c3cccc(CC(=O)O)c3oc2c1C the data give log solubility -5.32 (log10 mol/L) and vapor pressure -10 (log10 mmHg). The entry for CC(=O)OC1CCCCC1 lists logP 2.64 and log solubility -1.67 (log10 mol/L).

For CCOC(OCC)[SiH2]CN1CCOCC1 the data give melting point -100.2 °C and BP 232.7 °C and vapor pressure -0.648 (log10 mmHg). Listed for O=C(CCc1ccc(O)cc1)c1c(O)cc(O)cc1O[C@@H]1O[C@H](CO)[C@@H](O)[C@H](O)[C@H]1O: logP 0.95 and vapor pressure -9.82 (log10 mmHg).

2 of these entries, quoted again:

COc1ccc(C(=O)c2ccccc2)c(O)c1 has fu 0.00952 and Clint 15.7 µL/min/10^6 cells.
Cc1ccc(C(C)NC(=O)[C@@H](NC(=O)OC(C)C)C(C)C)cc1 (some centres undefined) has vapor pressure -9.227 (log10 mmHg) and Henry's law constant -10.86 (log10 atm·m3/mol).

From the experimental data distributed with OPERA 2.9.